Laboratory results: patent publication US20250129069A1, “TRIAZOLO WRN INHIBITORS” (Nimbus Wadjet, Inc., priority 2023, published 2025)
pEC50, pIC50: −log10 of the molar value.

Amino acid sequences for entries named in this document (tags omitted). Chains listed by the source or under a name are the forms on record and can include a tag or linker. Residues count along the entry.
UniProt Q14191, 517-1235 with tags or gaps L1074F limits assumed: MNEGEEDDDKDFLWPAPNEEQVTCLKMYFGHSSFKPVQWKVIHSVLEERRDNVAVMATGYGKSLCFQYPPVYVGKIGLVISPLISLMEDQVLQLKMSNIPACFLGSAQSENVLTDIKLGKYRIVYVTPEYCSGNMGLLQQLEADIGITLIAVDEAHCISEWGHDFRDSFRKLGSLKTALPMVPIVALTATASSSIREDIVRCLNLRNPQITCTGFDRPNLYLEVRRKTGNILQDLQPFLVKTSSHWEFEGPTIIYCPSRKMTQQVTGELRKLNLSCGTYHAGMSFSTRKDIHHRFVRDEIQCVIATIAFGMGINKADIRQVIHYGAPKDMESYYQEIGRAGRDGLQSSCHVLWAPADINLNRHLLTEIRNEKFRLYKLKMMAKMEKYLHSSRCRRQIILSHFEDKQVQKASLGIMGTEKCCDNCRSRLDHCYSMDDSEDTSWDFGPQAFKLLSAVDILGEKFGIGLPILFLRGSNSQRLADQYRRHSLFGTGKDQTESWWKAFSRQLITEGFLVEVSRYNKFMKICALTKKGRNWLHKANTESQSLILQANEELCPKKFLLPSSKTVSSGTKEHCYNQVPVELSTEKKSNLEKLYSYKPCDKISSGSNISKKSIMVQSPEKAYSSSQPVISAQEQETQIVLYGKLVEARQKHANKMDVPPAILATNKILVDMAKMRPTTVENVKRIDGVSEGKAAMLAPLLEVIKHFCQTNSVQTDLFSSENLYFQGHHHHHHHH

Legend:
[1] = tested on: p21 induction in HCT 116 cells; assay: p21 induction in cells (In-Cell Western, p21/GAPDH ratio); conditions: read-out: p21_EC50, 24 h compound incubation
Protocol: The colon carcinoma cell line HCT 116 was obtained from ATCC and cultured in growth medium consisting of Mccoy's 5A Medium (Gibco 16600108) supplemented with 10% FBS (Transgene FS201-02) and 100 units/mL penicillin-streptomycin (Gibco 15140122) and maintained at 37° C. under 5% CO2. On the day of seeding, 2,000 cells in 30 μL of culture media were plated per well to Poly-D-Lysine 384 Well Black Clear Plates (Biocoat 356663) and incubated overnight at 37° C. under 5% CO2. The following day, compounds were serially diluted in DMSO for a total of 11 test concentrations. The typical starting concentration of compounds was 10 μM with 2-fold dilutions. Next, 150 nL of diluted compound was added in duplicate to the assay plate, using an Echo 655 (Labcyte). The plate was centrifuged at 500 RPM for 1 min and then incubated at 37° C. under 5% CO2 for 24 h. […] Finally, the p21 signal and the GAPDH signal were quantified using a LI-COR Odyssey CLx Imager machine reading at 800 nm and 700 nm, respectively. […] For quantitation, the 800 nm/700 nm ratio was calculated for each well to give fold p21 induction and then percent activation for each compound well was calculated as follows (100×(ratio cpd well-ratio low control)/(ratio high control−ratio low control). EC50 values for each compound was generated after non-linear regression curve fitting using commercially available software.

[2] = target: human Werner helicase (WRN, amino acids 517-1235 with L1074F point mutation) (Homo sapiens (Human), UniProt Q14191, L1074F); assay: WRN (BV08) ADP-Glo assay; conditions: read-out: ADP-Glo_hWRN_IC50, human WRN (aa 517-1235, L1074F)

Structure (SMILES): CCc1c(N2CCN(C(=O)c3c(O)cc(OC)cc3OC)CC2)c(=O)c2nn(-c3ccnc(OC)c3)nc2n1CC(=O)NC12CC(C3CC3)(C1)C2
- pEC50 [1]: 5.30 to 5.70
- pIC50 [2]: 7.30 to 8.30
